50 compounds from PubChem BioAssay AID2300 (The Scripps Research Institute Molecular Screening Center, 2010) can be followed below.

By UniProt entry, the sequences of proteins in these tests, tags left out. Where a name states a change or a piece, a line headed by the entry shows the natural chain unless it says otherwise.
UniProt Q9Y5X4: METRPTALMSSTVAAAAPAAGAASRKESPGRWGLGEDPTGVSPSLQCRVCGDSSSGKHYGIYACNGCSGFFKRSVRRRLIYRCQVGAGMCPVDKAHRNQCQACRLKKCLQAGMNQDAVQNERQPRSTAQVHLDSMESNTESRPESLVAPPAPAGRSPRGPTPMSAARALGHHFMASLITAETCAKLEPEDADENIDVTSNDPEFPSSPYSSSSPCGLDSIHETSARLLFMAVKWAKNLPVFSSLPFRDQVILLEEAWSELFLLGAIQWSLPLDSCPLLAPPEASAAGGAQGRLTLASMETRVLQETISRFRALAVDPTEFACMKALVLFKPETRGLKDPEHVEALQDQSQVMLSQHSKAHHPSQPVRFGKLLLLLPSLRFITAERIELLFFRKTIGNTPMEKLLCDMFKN

This is a selection; strong and weak results do not stand in their true shares. Active and inactive are the calls of the source.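 The calls were made as follows: active = percent inhibition above the cutoff of mean plus 3 SD of all tested compounds, set per screening campaign (cut at about 20% in these data); inactive = the rest.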

The assay addresses Photoreceptor-specific nuclear receptor (Homo sapiens) (UniProt Q9Y5X4). The assay can be described thus: inhibitors of NR2E3-RetCOR corepressor binding, primary screen, NR2E3 agonist project, biochemical, TR-FRET, GST-NR2E3, biotin-RetCOR (AID 2300).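 Also: 0% = DMSO wells and 100% = biotin wells as full block of FRET.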 The following applies: 1536-well, at 4.78 µM, active compounds read high. In a few lines:
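System: GST-tagged NR2E3 plus biotinylated RetCOR corepressor; Buffer or medium: pH 7.5 Tris-based buffer; Probe or stimulus: RetCOR corepressor, biotinylated, 7 nM; Doses: compound at 4.8 µM, single dose; Schedule: 5 h incubation at 4 °C; Technique: time-resolved FRET; Evaluation: percent inhibition of TR-FRET ratio; Replication: one well per compound, singlicate testing.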
(In general: TR-FRET usually uses a lanthanide donor and a delayed reading to cut background.)
On to `CC(C)C(=O)NC(Sc1ccccc1)C(Cl)(Cl)Cl` (stereo not given), for which the inhibition of corepressor binding was inactive: 0.47%.
For the compound `c1nnnn1CCn1cnnn1`, the inhibition of corepressor binding is inactive: -3.04%.
In the case of `CCOc1ccc(C2=NCC(CBr)S2)cc1` (stereo not given), the inhibition of corepressor binding was inactive: -1.81%.
In the case of `O=P1(Nc2nc3ccc(Cl)cc3s2)COc2ccccc2O1` (stereo not given), the inhibition of corepressor binding is inactive: 0.65%.
Regarding `CC(C)(C)C(=O)NC(Sc1ccccc1)C(Cl)(Cl)Cl` (stereo not given), the inhibition of corepressor binding was inactive: 1.66%.
With `C[C@H]1OP(=O)(Oc2ccccc2)C[C@@H]2O[C@@H]21` (stereo not given in full), the inhibition of corepressor binding was inactive: -1.83%.
Then `C[C@@H]1C=CCP(=O)(Oc2ccccc2)O1` (stereo not given in full), with inactive: -0.87%; and `Cc1ccccc1CN(C)C(=O)COC(=O)C(O)(c1ccccc1)c1ccccc1`, with inactive: 1.51%; and `CC(=O)c1ccc(N2CC2c2ccncc2)cc1` (stereo not given), with inactive: -2.62%.
Then `CC(=O)Nc1ccc(Oc2c([N+](=O)[O-])cc([N+](=O)[O-])cc2[N+](=O)[O-])cc1`, with inactive: 6.86%.
As for `CC(=O)Nc1ccc([As](=O)(O)O)c(O)c1`, the figure is inactive: 1.32%; as for `Cc1ccc(NP(=O)(Oc2cccc(C)c2)Oc2cccc(C)c2)nc1`, inactive: 3.1%.
For `CCOC(=O)NC(Sc1ccccc1)C(Cl)(Cl)Cl` (stereo not given), the inhibition of corepressor binding was inactive: 2.29%.
`c1ccc(-c2nn[nH]n2)c(-c2nn[nH]n2)c1`: the inhibition of corepressor binding is inactive: -1.6%.
In the case of `O=C(NC1CCS(=O)(=O)C1)NP(=S)(Oc1ccccc1)Oc1ccccc1` (stereo not given), the inhibition of corepressor binding is inactive: 2.79%.
Turning to `CCNC(=S)/N=C(\N)N[N+](=O)[O-]`, the inhibition of corepressor binding was inactive: 0.07%.
In the case of `CCC(=O)N1C2C3N(C(=O)CC)C1C1N(C(=O)CC)C(C(N1C(=O)CC)N3C(=O)CC)N2C(=O)CC`, the inhibition of corepressor binding was inactive: -1.67%.
Regarding `O=C(OC1CN2CCC1CC2)c1ccccc1` (stereo not given), the inhibition of corepressor binding is inactive: 0.32%.
As for `CC(=O)NC(SC(=S)N(CC(C)C)CC(C)C)C(Cl)(Cl)Cl` (stereo not given), the figure is inactive: 0.27%; as for `Cc1ccc(OP(=O)(Nc2ccccn2)Oc2ccc(C)cc2)cc1`, inactive: 3.39%.
Take `COC(=O)c1cc2c(s1)N=C(c1ccccc1)N(C)P2(=O)N1CCOCC1` (stereo not given): the inhibition of corepressor binding is inactive: 4.04%.
Take `CN(C)C(=O)Oc1noc2ccccc12`: the inhibition of corepressor binding is inactive: -4.61%.
Consider `Cc1ccccc1OP(=O)(Nc1ccccn1)Oc1ccccc1C`, for which the inhibition of corepressor binding was inactive: 3.26%.
For the compound `O=P(Nc1nccs1)(Oc1ccccc1)Oc1ccccc1`, the inhibition of corepressor binding was inactive: -3.57%.
With `O=P(Nc1nccs1)(c1ccccc1)c1nc2ccccc2s1` (stereo not given), the inhibition of corepressor binding is inactive: -2.82%.
Turning to `CCOP1(=S)c2c(C)nn(CCC#N)c2N=C(c2ccccc2F)N1C` (stereo not given), the inhibition of corepressor binding is inactive: 1.63%.
As for `CS(=O)(=O)c1cc([N+](=O)[O-])c2no[n+]([O-])c2c1`, the figure is inactive: -2.51%.
With `O=C(O)COc1ccc([As](=O)(O)O)cc1[N+](=O)[O-]`, the inhibition of corepressor binding is inactive: -1.32%.
For `Nc1ccccc1[As](=O)(O)c1ccccc1`, the inhibition of corepressor binding was inactive: 2.13%.
For `NC(=O)Nc1ccc([As](=O)(O)O)cc1`, the inhibition of corepressor binding is inactive: 1.19%.
`CCOP1(=S)c2c(C)nn(CCC#N)c2N=C(c2ccc(F)cc2)N1C` (stereo not given): the inhibition of corepressor binding is inactive: 2.57%.
For `CN(C(=O)Cc1ccccc1)[C@@H]1CC[C@]2(CCCO2)C[C@H]1N1CCCC1`, the inhibition of corepressor binding is inactive: 2.96%.
Then `N#CCCN(C(=O)COC(=O)C(O)(c1ccccc1)c1ccccc1)c1ccc(F)cc1`, with inactive: -6.81%; and `CN(C(=O)Cc1ccc(Cl)c(Cl)c1)[C@H]1CC[C@@]2(CCCO2)C[C@@H]1N1CCCC1`, with inactive: 1.94%; and `O=[N+]([O-])c1ccc2c(c1)nnn2O`, with inactive: 0.68%.
In the case of `CN(C)C(=O)c1cc([N+](=O)[O-])cc2c1-c1c(cc([N+](=O)[O-])cc1[N+](=O)[O-])C2=O`, the inhibition of corepressor binding is inactive: -9.85%.
Consider `O=C(OC1CN2CCC1CC2)c1ccc(Cl)cc1` (stereo not given), for which the inhibition of corepressor binding is inactive: 0.45%.
Then `CS(=O)(=O)c1ccc(Cl)c(NC(=O)COC(=O)C(O)(c2ccccc2)c2ccccc2)c1`, with inactive: 1.42%; and `O=[As](O)(O)c1cccnc1`, with inactive: -1.74%; and `COc1cc(C(=O)NCC2(N3CCOCC3)CCCCC2)cc(Cl)c1OC(C)C`, with inactive: -2%.
On to `Cc1cccc(OCC(=O)OC2CN3CCC2CC3)c1` (stereo not given), for which the inhibition of corepressor binding was inactive: -0.25%.
Turning to `O=[As](O)(c1cccc(O)c1)c1cccc(O)c1`, the inhibition of corepressor binding is inactive: -0.68%.
With `Cc1ccc(NCCc2c([N+](=O)[O-])cc([N+](=O)[O-])cc2[N+](=O)[O-])cc1`, the inhibition of corepressor binding was inactive: -0.57%.
For `Nc1cccc2c([As](=O)(O)O)cccc12`, the inhibition of corepressor binding is inactive: 1.34%.
As for `CCCOP(=S)(Nc1nc(N)cc(=O)[nH]1)OCCC`, the inhibition of corepressor binding is inactive: 0.45%.
As for `CCOP(=O)(Nc1cccc2ccccc12)OCC`, the inhibition of corepressor binding was inactive: -0.72%.
As for `COc1cc(C2NCCC3(OCCO3)C2(C)C)cc(OC)c1OC` (stereo not given), the inhibition of corepressor binding was inactive: 1.05%.
Turning to `CCOP(=O)(NC(=NC(C)c1ccccc1)NC(C)c1ccccc1)OCC` (stereo not given), the inhibition of corepressor binding was inactive: 4.53%.
In the case of `CCC1=CC2Cc3nc4ccc(Cl)cc4c(N)c3C(C1)C2` (stereo not given), the inhibition of corepressor binding was inactive: -0.23%.
As for `O=P1(Nc2ccccn2)COc2ccccc2OC1`, the inhibition of corepressor binding was inactive: 0.05%.
